Measured values reported in patent publication US20200345804A1.

Target: recombinant BIR3 domain of cIAP1 with N-terminal 6xHis tag (Artificial Sequence)
Assay: DELFIA displacement of AVPI-Biotin

IC50: 289 nM
Binder: AVPI
